Only a part is listed here, and it is no random draw. Some tests of the compounds listed are not included; inactive here does not mean inactive elsewhere. Active and inactive are the calls of the source.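 The calls were made as follows: active = viability at or under a set limit, the compound median less 4 SD (cut at about 6% in these data); inactive = the rest.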

A short description of this experiment: primary screen for suppressors of beta-catenin knockout HCT116 cell growth, colon tumor, human (AID 818).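 Also: 0% = Hyamine 1622 control at 20 µM and 100% = untreated cell control.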 The settings on record: CellTiter-Glo, 60 h, at 10 µM, hits give low values. A general note: In ATP-based viability assays light output follows the ATP content of the culture.
With `O=C(OC1CN2CCC1CC2)C(CO)(c1ccccc1)c1ccccc1` (stereo not given), the viability was inactive: 94.9%.

As for `CN(C)c1cccc(C(=O)NCC2(N(C)C)CCCCC2)c1`, the viability is inactive: 80.4%.

On to `CC(C)N1C(=O)CC2(CCN(CCOC(=O)C(O)(c3ccccc3)c3ccccc3)CC2)C1=O`, for which the viability was inactive: 80.1%.

For the compound `CN(C)C1CCCC1OC(=O)C(O)(c1ccccc1)c1ccccc1` (stereo not given), the viability was inactive: 90.5%.

Regarding `CCN1CCCC(OC(=O)C2(O)c3ccccc3C=Cc3ccccc32)C1` (stereo not given), the viability is inactive: 83.2%.

In general, viability refers to a per cent measure of how many cells are alive, often set against a control.

The values above are taken from PubChem BioAssay AID818 (SRMLSC, 2007).
